One test concerns the target HLA-A03.01 (human). The test is described as follows: peptide-HLA class I complex stability, method not described. Particulars: remark: other sources report otherwise.
A further test has as its target HLA-A11.01 (human). The description is as above. The conditions noted are these: remark: other sources report otherwise.

For the molecule VVVGACGVGK [KRAS, G12C peptide …], the results for the Measured stability in the test with HLA-A03.01 (human) and with HLA-A11.01 (human) were 2.5 h and 15.7 h, respectively.

The record behind these values is US12246067.
